Test results as given in BindingDB's records for PubMed 2795135 (Stanford University, 1989).

Chains of the proteins cited; added tags and fusions are not shown.
UniProt P14842, whole entry: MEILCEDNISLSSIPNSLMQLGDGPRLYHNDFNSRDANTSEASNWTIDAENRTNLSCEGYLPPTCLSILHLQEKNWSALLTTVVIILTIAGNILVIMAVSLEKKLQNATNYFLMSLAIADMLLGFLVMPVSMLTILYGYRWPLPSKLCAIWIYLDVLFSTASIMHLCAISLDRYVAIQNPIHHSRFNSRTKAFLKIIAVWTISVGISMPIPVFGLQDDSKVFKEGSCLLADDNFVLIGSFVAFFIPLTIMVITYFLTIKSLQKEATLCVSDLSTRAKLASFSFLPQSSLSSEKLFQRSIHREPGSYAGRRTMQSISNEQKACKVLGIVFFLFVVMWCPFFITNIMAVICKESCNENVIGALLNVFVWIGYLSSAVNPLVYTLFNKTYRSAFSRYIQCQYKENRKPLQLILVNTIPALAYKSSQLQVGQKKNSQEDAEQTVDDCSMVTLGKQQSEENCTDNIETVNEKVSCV
UniProt Q8MI09, whole entry: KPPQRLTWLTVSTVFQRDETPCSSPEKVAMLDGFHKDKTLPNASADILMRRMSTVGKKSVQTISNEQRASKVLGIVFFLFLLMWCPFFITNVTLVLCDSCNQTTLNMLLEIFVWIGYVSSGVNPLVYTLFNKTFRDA

Legend:
[1] = target: 5-hydroxytryptamine receptor 2A (Rattus norvegicus, UniProt P14842)
[2] = target: 5-hydroxytryptamine receptor 2B (Bos taurus, UniProt Q8MI09)

## CCc1cc(OC)c(CC(C)N)cc1OC (configuration not stated)
[1]
  Ki: 0.54 nM

## CN1C[C@H](CNC(=O)OCc2ccccc2)C[C@@H]2c3cccc4c3c(cn4C)C[C@H]21 [METERGOLINE]
[2]
  Ki: 2.3 nM
